Laboratory results as given in ChEMBL document CHEMBL5614411, “Exploring novel A2AAR antagonists: Design, synthesis, and evaluation of 2,6,9-trisubstituted purine derivatives as promising antifibrotic agents” (Bioorg Med Chem, 2024).
Active and inactive are the calls of the source.

Columns and labels:
Type in all cases: functional, cell-based
LX-2 [1] = assay: Antifibrotic activity against human LX-2 cells overexpressing human Adenosine receptor A2a assessed as downregulation of PKA phosphorylation at Thr197 residue at 10 uM incubated for 18 hrs by Western blotting analysis
LX-2 [2] = assay: Antifibrotic activity against human LX-2 cells overexpressing human Adenosine receptor A2a assessed as downregulation of COL1A1 expression at 10 uM incubated for 18 hrs by Western blotting analysis
LX-2 [3] = assay: Antifibrotic activity against human LX-2 cells overexpressing human Adenosine receptor A2a assessed as downregulation of alpha-SMA expression at 10 uM incubated for 18 hrs by Western blotting analysis
LX-2 [4] = assay: Antifibrotic activity against human LX-2 cells overexpressing human Adenosine receptor A2a assessed as downregulation of fibronectin expression at 10 uM incubated for 18 hrs by Western blotting analysis

Measured: Activity

Nc1nc(NCCc2ccc(O)cc2)nc2nc(-c3ccco3)nn12
active: all assays above

CNc1nc(C#Cc2ccccc2)nc2c1ncn2COCc1ccccc1
active: all assays above
